# Measured values from patent US11506654B2, “Method, composition and kit for screening ALK or ROS-1 kinase inhibitor” (KOREA INSTITUTE OF SCIENCE AND TECHNOLOGY, priority 2018, dated 2022).
# Test system: HCC-78 cell line
# Experiment: Change in metabolites in HCC-78 cell line after ALK/ROS-1 kinase inhibitor treatment, UHPLC-MS
# Assay type: cell-based
# Details: HCC-78, 1 μM, 24 hours, n=5
# Experimental: HCC-78 lung cancer cells were cultured in a 5% carbon dioxide cell incubator at a temperature of 37° C. using a RPMI medium containing 10% fetal bovine serum and 1% antibiotic. Thereafter, when the cell growth was stabilized, the cells were treated with each of crizotinib and ceritinib of ALK and ROS-1 kinase inhibitors at a concentration of 1 μM so as to have a percentage of 0.01% of the total medium and then cultured for 24 hours. At this time, as a control group, DMSO (dimethyl sulfoxide) was added to the cells in an amount to be 0.01% of the total medium, and the cells were cultured for 24 hours. Each cell was cultured in 5 cell dishes for each group so that the total number of experiments for each group was 5 (n=5).
# After the culture time of 24 hours had elapsed, the medium was removed, and the cells were washed two times with PBS (phosphate buffered saline). The cells were then acquired from the culture dish using a cell scraper, put in a tube, and stored at −80° C.
# For mass analysis, 120 μL of a 70% methanol solution containing 2 μg/mL of reserpine as an internal standard substance was added to the cells obtained in Example 2-1, and then the mixture was subjected to vortexing so as to allow the cells to mix well. Thereafter, a process in which the mixed solution was frozen using liquid nitrogen, dissolved in water at room temperature, and then sonicated for 30 seconds was repeated three times to destroy the cells. Thereafter, the resultant mixed solution was subjected to centrifugation at 14000 rpm for 10 minutes, and only the supernatant was separated from this. At this time, DNA quantitation was conducted in order to correct the cell volume of the intracellular fluid extract acquired according to the series of procedures. DNA quantitation was conducted by mixing the extract with water at a ratio of 1:3, putting 5 μL of the mixture in a cuvette, and measuring the quantity at 260 nm by using a spectrophotometer Nano-MD of SHINKO CO., LTD. […]
smiles,measurement,value
C[C@@H](Oc1cc(-c2cnn(C3CCNCC3)c2)cnc1N)c1c(Cl)ccc(F)c1Cl [crizotinib],AMP increase as compared with control group,140.79%
same,adenosine decrease as compared with control group,93.43%
same,cAMP decrease as compared with control group,72.03%
